Reference: US9682960B2 (priority 2013, dated 2017)
Read-outs that look alike come from different tables or passages of the source.

Test system: castrated (CX) immature male rats bearing a DHT implant
Details: 7 days; for CX + DHT Antagonistic activity % Inhibition Bulbo: bulbocavernosus muscles weight; for CX + DHT Antagonistic activity % Inhibition SV: seminal vesicles weight; for CX + DHT Antagonistic activity % Inhibition Prostate: ventral prostate weight

SMILES	CX + DHT Antagonistic activity % Inhibition Bulbo (0.5 mg/rat/po) [%]	CX + DHT Antagonistic activity % Inhibition SV (0.5 mg/rat/po) [%]	CX + DHT Antagonistic activity % Inhibition Prostate (0.5 mg/rat/po) [%]	also measured
Cc1c(N2C(=O)C(C)(C)N(CCCOc3ccc4cccnc4c3)C2=S)ccc(C#N)c1Cl [EM-8730]	0	0	0	
CC1(C)C(=O)N(c2ccc(C#N)c(Cl)c2)C(=O)N1CCCOc1ccc(-c2ccncc2)cc1Cl.Cl [EM-9287]				CX + DHT Antagonistic activity % Inhibition Bulbo (0.3 mg/rat po): 71 (0.3 mg/rat) %; CX + DHT Antagonistic activity % Inhibition SV (0.3 mg/rat po): 101 (0.3 mg/rat) %; CX + DHT Antagonistic activity % Inhibition Prostate (0.3 mg/rat po): 37 (0.3 mg/rat) %
CC1(C)C(=O)N(c2ccc(C#N)c(C(F)(F)F)c2)C(=S)N1CCCOc1ccc(-c2ccncc2)cc1C(F)(F)F [EM-8900]	29	79	54	
Cc1c(N2C(=O)N(CCCOc3ccc(-c4ccncc4)c(F)c3)C(C)(C)C2=O)ccc(C#N)c1F [EM-9205]	73	87	65	
CC1(C)C(=O)N(c2ccc(C#N)c(F)c2)C(=S)N1CCCOc1ccc(-c2ccncc2)cc1 [EM-9025]	61	76	51	
Cc1c(N2C(=O)NC(C)(C)C2=O)ccc(C#N)c1Cl [EM-9289]	−66	50	47	
CC1(C)C(=O)N(c2ccc(C#N)c(C(F)(F)F)c2)C(=O)N1CCCOc1ccc(-c2cc[n+]([O-])cc2)c(F)c1 [EM-9067]	80	89	54	
CC1(C)C(=O)N(c2ccc(C#N)c(C(F)(F)F)c2)C(=S)N1CCCOc1ccc(-c2cc[n+]([O-])cc2)cc1.Cl [EM-9043]				CX + DHT Antagonistic activity % Inhibition Bulbo (0.1 mg/rat po): 52 ± 8 (n = 2) 0.1 mg/rat %; CX + DHT Antagonistic activity % Inhibition SV (0.1 mg/rat po): 61 ± 3 (n = 2) 0.1 mg/rat %; CX + DHT Antagonistic activity % Inhibition Prostate (0.1 mg/rat/po): 43 ± 8 (n = 2) 0.1 mg/rat %
CC1(C)C(=O)N(c2ccc(C#N)c(C(F)(F)F)c2)C(=S)N1CCCOc1ccc(-c2ccncc2)cn1 [EM-9050]	64	92	54	
Cc1c(N2C(=O)C(C)(C)N(CCCOc3ccc(-c4ccncc4)c(F)c3)C2=S)ccc(C#N)c1Cl [EM-8796]	−132	−119	23	
CC1(C)C(=O)N(c2ccc(C#N)c(Cl)c2)C(=S)N1CCCOc1ccc(-c2cc[n+]([O-])cc2)c(F)c1 [EM-9119]	74	81	58	
CC1(C)C(=O)N(c2ccc(C#N)c(Cl)c2)C(=S)N1CCCOc1ccc(-c2cc[n+]([O-])cc2)cc1 [EM-9120]				CX + DHT Antagonistic activity % Inhibition Bulbo (0.2 mg/rat po): 76 (0.2 mg/rat) %; CX + DHT Antagonistic activity % Inhibition SV (0.2 mg/rat po): 82 (0.2 mg/rat) %; CX + DHT Antagonistic activity % Inhibition Prostate (0.2 mg/rat po): 48 (0.2 mg/rat) %
CC1(C)C(=O)N(c2ccc(C#N)c(Cl)c2)C(=O)N1CCCOc1ccc(-c2cc[n+]([O-])cc2)cc1F [EM-9226]	73	87	54	
Cc1c(N2C(=O)N(CCOc3ccc(-c4cc[n+]([O-])cc4)cc3)C(C)(C)C2=O)ccc(C#N)c1Cl [EM-9339]				CX + DHT Antagonistic activity % Inhibition Bulbo (0.1 mg/rat po): −11 (0.1 mg/rat) %; CX + DHT Antagonistic activity % Inhibition SV (0.1 mg/rat po): 30 (0.1 mg/rat) %; CX + DHT Antagonistic activity % Inhibition Prostate (0.1 mg/rat/po): 30 (0.1 mg/rat) %
CC1(C)C(=O)N(c2ccc(C#N)c(C(F)(F)F)c2)C(=S)N1CCCOc1ccc(-c2cc[n+]([O-])cc2)cc1 [EM-8929]	43	88	59	
Cc1c(N2C(=O)N(c3ccc(-c4ccncc4)cc3)C(C)(C)C2=O)ccc(C#N)c1C(F)(F)F [EM-9344]				CX + DHT Antagonistic activity % Inhibition Bulbo (0.1 mg/rat po): 56 ± 3 (n = 2, 0.1 mg/ rat) %; CX + DHT Antagonistic activity % Inhibition SV (0.1 mg/rat po): 65 ± 6 (n = 2, 0.1 mg/ rat) %; CX + DHT Antagonistic activity % Inhibition Prostate (0.1 mg/rat/po): 35 ± 5 (n = 2, 0.1 mg/ rat) %
Cc1c(N2C(=O)C(C)(C)N(CCCOc3ccc(-c4cc[n+]([O-])cc4)c(Cl)c3)C2=S)ccc(C#N)c1Cl [EM-9036]				CX + DHT Antagonistic activity % Inhibition Bulbo (0.1 mg/rat po): −184 (0.1 mg/rat) %; CX + DHT Antagonistic activity % Inhibition SV (0.1 mg/rat po): −50 (0.1 mg/rat) %; CX + DHT Antagonistic activity % Inhibition Prostate (0.1 mg/rat/po): 27 (0.1 mg/rat) %
Cc1c(N2C(=O)C(C)(C)N(CCCOc3ccc(-c4ccc(N(C)C)nc4)cc3)C2=S)ccc(C#N)c1Cl [EM-8993]	−74	−43	24	
Cc1c(N2C(=O)C(C)(C)N(CCCOc3ccc(-c4ccncc4)cc3F)C2=S)ccc(C#N)c1Cl [EM-8723]	−57	−10	35	
Cc1c(N2C(=O)C(C)(C)N(CCCOc3ccc(-c4ccncc4)cc3Cl)C2=S)ccc(C#N)c1Cl [EM-8799]	0	0	0	
Cc1c(N2C(=O)N(CCCCc3ccc(-c4ccncc4)cc3)C(C)(C)C2=O)ccc(C#N)c1Cl [EM-9336]				CX + DHT Antagonistic activity % Inhibition Bulbo (0.1 mg/rat po): 13 (0.1 mg/rat) %; CX + DHT Antagonistic activity % Inhibition SV (0.1 mg/rat po): 29 (0.1 mg/rat) %; CX + DHT Antagonistic activity % Inhibition Prostate (0.1 mg/rat/po): 15 (0.1 mg/rat) %
CC1(C)C(=O)N(c2ccc(C#N)c(C(F)(F)F)c2)C(=S)N1CCCCOc1ccc(-c2cccnc2)cc1 [EM-9070]	55	83	52	
Cc1c(N2C(=O)C(C)(C)N(CCCOc3ccc(-c4cccnc4)cc3)C2=S)ccc(C#N)c1Cl [EM-8656]	0	0	17	
Cc1c(N2C(=O)C(C)(C)N(CCCOc3ccc(-c4ccncc4)c(C#N)c3)C2=S)ccc(C#N)c1Cl [EM-8933]	0	2	28	
Cc1c(N2C(=O)C(C)(C)N(CCCOc3ccc4ncccc4c3)C2=S)ccc(C#N)c1Cl [EM-8728]	0	0	11	
Cc1c(N2C(=O)N(CCCOc3ccc(-c4ccncc4)c(F)c3)C(C)(C)C2=O)ccc(C#N)c1Cl [EM-9253]	−44	44	30	
Cc1c(N2C(=O)N(CCCOc3ccc(-c4ccncc4Cl)cc3)C(C)(C)C2=O)ccc(C#N)c1Cl [EM-9310]				CX + DHT Antagonistic activity % Inhibition Bulbo (0.1 mg/rat po): −39 ± 25 (n = 2, 0.1 mg/rat) %; CX + DHT Antagonistic activity % Inhibition SV (0.1 mg/rat po): 37 ± 3 (n = 2, 0.1 mg/rat) %; CX + DHT Antagonistic activity % Inhibition Prostate (0.1 mg/rat/po): 25 ± 8 (n = 2, 0.1 mg/rat) %
